## Ab-14 light chain CDR variants: yeast mating affinities

The target is the same throughout: PDVDLGDISGINAS, from the HR2 region of SARS-CoV-2 spike.

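The parent was found by panning a naive human phage display library on the peptide. AAYL50 was designed without a model: most single CDR substitutions and a random sample of double and triple ones. In AlphaSeq, yeast of one mating type display the scFv and yeast of the other type display the target. The frequency of each diploid, read from paired DNA barcodes, reflects how well the two displayed proteins bind. Each replicate has its own calibration line, from reference interactions of the BCL2 family. The assay was run in three technical replicates.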

Parent scFv Ab-14: VH joined to VL by a 15-residue (Gly4Ser)3 linker. Changes lie in the light chain CDRs alone.
VH: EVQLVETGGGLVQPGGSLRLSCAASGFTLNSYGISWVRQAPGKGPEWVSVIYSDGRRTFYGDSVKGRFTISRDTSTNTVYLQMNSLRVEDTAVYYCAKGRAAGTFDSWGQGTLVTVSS
VL: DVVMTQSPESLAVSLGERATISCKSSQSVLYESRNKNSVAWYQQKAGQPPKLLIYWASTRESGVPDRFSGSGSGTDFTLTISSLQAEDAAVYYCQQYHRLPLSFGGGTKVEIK

Positions count from residue 1 of the parent VL; S28E puts E in place of S. Values are log10 of the apparent Kd in nM; lower means stronger binding. Averages over replicates are reported, and they cover detected replicates only. "nd" marks a missing value. The strain was present, yet no cells mated with the target were sequenced in that replicate, which points to weak or no binding. As a blank, each scFv also met three strains without target: over library AAYL50, 18% of these pairings were detected, typically at 4.19 and seldom below 2.99. For each scFv, signals with the empty controls are counted beside the result, with their mean in brackets. For reference, the parent read 0.65 as the reference entry and 1.68 as a member of this library.

{"changes": "S28E/V39H/S103F", "log10 Kd, replicates": "nd / nd / nd", "mean, log10 nM": "nd", "control signals": "1 of 9 (2.01)"}
{"changes": "V29F/Y97M/L100Y", "log10 Kd, replicates": "nd / nd / nd", "mean, log10 nM": "nd", "control signals": "0 of 9"}
{"changes": "R34I/T59A/S103H", "log10 Kd, replicates": "2.09 / 1.94 / 2.25", "mean, log10 nM": "2.09", "control signals": "1 of 9 (5.14)"}
{"changes": "Y31Q/L102M/S103F", "log10 Kd, replicates": "3.53 / 3.42 / 3.56", "mean, log10 nM": "3.50", "control signals": "3 of 9 (4.72)"}
{"changes": "K24L/Y31W/R99H", "log10 Kd, replicates": "1.86 / 1.18 / 1.40", "mean, log10 nM": "1.48", "control signals": "0 of 9"}
{"changes": "E32Q/Y97E/P101A", "log10 Kd, replicates": "1.73 / 1.70 / 1.88", "mean, log10 nM": "1.77", "control signals": "2 of 9 (4.39)"}
{"changes": "Q27A/E32N/A40S", "log10 Kd, replicates": "5.81 / nd / 3.72", "mean, log10 nM": "4.76", "control signals": "2 of 9 (3.62)"}
{"changes": "S33C/T59Q/Q95I", "log10 Kd, replicates": "3.26 / 2.94 / 4.36", "mean, log10 nM": "3.52", "control signals": "0 of 9"}
{"changes": "Q27G/Y31K/Q96V", "log10 Kd, replicates": "4.28 / nd / nd", "mean, log10 nM": "4.28", "control signals": "4 of 9 (4.36)"}
{"changes": "V29T/S33E/S62E", "log10 Kd, replicates": "0.33 / 0.57 / 0.46", "mean, log10 nM": "0.46", "control signals": "5 of 9 (4.57)"}
{"changes": "Q27H/S58W/Q95Y", "log10 Kd, replicates": "nd / nd / nd", "mean, log10 nM": "nd", "control signals": "1 of 9 (2.92)"}
{"changes": "S25R/E32G/L102N", "log10 Kd, replicates": "2.20 / 2.11 / nd", "mean, log10 nM": "2.16", "control signals": "2 of 9 (3.66)"}
{"changes": "S62F/H98Y", "log10 Kd, replicates": "4.47 / nd / nd", "mean, log10 nM": "4.47", "control signals": "1 of 9 (4.08)"}
{"changes": "S25Q/R99F", "log10 Kd, replicates": "2.45 / 1.92 / 2.71", "mean, log10 nM": "2.36", "control signals": "4 of 9 (3.62)"}
{"changes": "L30S/E32Q/R34A", "log10 Kd, replicates": "nd / 3.82 / nd", "mean, log10 nM": "3.82", "control signals": "2 of 9 (3.99)"}
{"changes": "S33K/H98A", "log10 Kd, replicates": "1.00 / 1.09 / 1.03", "mean, log10 nM": "1.04", "control signals": "1 of 9 (5.91)"}
{"changes": "S38Y/Q96M/S103I", "log10 Kd, replicates": "2.87 / 2.35 / 2.72", "mean, log10 nM": "2.65", "control signals": "3 of 9 (3.51)"}
{"changes": "S28T/W56Q/S62P", "log10 Kd, replicates": "-0.08 / 0.23 / 0.08", "mean, log10 nM": "0.08", "control signals": "1 of 9 (4.91)"}
{"changes": "H98C/P101Y/L102P", "log10 Kd, replicates": "nd / 4.35 / nd", "mean, log10 nM": "4.35", "control signals": "3 of 9 (3.65)"}
{"changes": "E61A/Q96M/R99P", "log10 Kd, replicates": "nd / 4.04 / 1.63", "mean, log10 nM": "2.84", "control signals": "0 of 9"}
{"changes": "S62F/Q95Y/Y97G", "log10 Kd, replicates": "3.79 / 4.35 / nd", "mean, log10 nM": "4.07", "control signals": "5 of 9 (4.52)"}
{"changes": "Q27K/L100F/S103H", "log10 Kd, replicates": "1.33 / 1.51 / 1.68", "mean, log10 nM": "1.51", "control signals": "1 of 9 (2.70)"}
{"changes": "S28G/N35A/K36L", "log10 Kd, replicates": "nd / nd / nd", "mean, log10 nM": "nd", "control signals": "1 of 9 (4.49)"}
{"changes": "E32F/S62Y/L100N", "log10 Kd, replicates": "2.79 / 2.82 / 2.90", "mean, log10 nM": "2.84", "control signals": "0 of 9"}
{"changes": "S25N/R99K/L100P", "log10 Kd, replicates": "nd / nd / nd", "mean, log10 nM": "nd", "control signals": "0 of 9"}
{"changes": "S25L/L30T/S33H", "log10 Kd, replicates": "1.21 / 1.31 / 1.20", "mean, log10 nM": "1.24", "control signals": "4 of 9 (4.44)"}
{"changes": "L30N/Q95R/Y97T", "log10 Kd, replicates": "nd / nd / nd", "mean, log10 nM": "nd", "control signals": "4 of 9 (4.13)"}
{"changes": "N37K/S58T/E61D", "log10 Kd, replicates": "nd / 2.29 / 3.09", "mean, log10 nM": "2.69", "control signals": "0 of 9"}
{"changes": "N37M/W56K/R99S", "log10 Kd, replicates": "0.60 / 0.88 / 0.72", "mean, log10 nM": "0.73", "control signals": "3 of 9 (4.90)"}
{"changes": "Q96N/L100R/S103Y", "log10 Kd, replicates": "4.67 / nd / 3.36", "mean, log10 nM": "4.02", "control signals": "1 of 9 (3.37)"}
{"changes": "L30Q/T59G/S103I", "log10 Kd, replicates": "3.43 / 3.41 / 2.77", "mean, log10 nM": "3.21", "control signals": "1 of 9 (2.94)"}
{"changes": "K24R/R99M/P101V", "log10 Kd, replicates": "nd / nd / nd", "mean, log10 nM": "nd", "control signals": "0 of 9"}

For reference, 4 entries of the list once more:

changes,"log10 Kd, replicates","mean, log10 nM",control signals
Q96N/L100R/S103Y,4.67 / nd / 3.36,4.02,1 of 9 (3.37)
Q27H/S58W/Q95Y,nd / nd / nd,nd,1 of 9 (2.92)
Y31Q/L102M/S103F,3.53 / 3.42 / 3.56,3.50,3 of 9 (4.72)
E32Q/Y97E/P101A,1.73 / 1.70 / 1.88,1.77,2 of 9 (4.39)

Data: MIT Lincoln Laboratory AlphaSeq set, Engelhart et al. 2022, doi:10.1038/s41597-022-01779-4, as distributed in FLAb.